{
  "sequences": {"note": "Chains of the proteins cited; added tags and fusions are not shown.", "UniProt Q99500, whole entry": "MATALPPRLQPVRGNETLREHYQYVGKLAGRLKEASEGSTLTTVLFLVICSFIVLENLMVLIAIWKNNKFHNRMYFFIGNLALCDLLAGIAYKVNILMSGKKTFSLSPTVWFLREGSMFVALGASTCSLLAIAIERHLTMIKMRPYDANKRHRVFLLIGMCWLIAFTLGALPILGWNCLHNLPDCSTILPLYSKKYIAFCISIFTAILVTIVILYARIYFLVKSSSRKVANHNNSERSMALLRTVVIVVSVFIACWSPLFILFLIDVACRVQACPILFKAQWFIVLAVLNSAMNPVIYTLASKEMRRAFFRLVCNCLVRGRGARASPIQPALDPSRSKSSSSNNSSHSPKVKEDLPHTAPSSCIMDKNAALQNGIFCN"},
  "source": "patent US8389509B2",
  "about": "“Substituted pyrazole compounds” (Bristol-Myers Squibb Company, priority 2009, dated 2013)",
  "key": {"S1P3": {"biological_target": "S1P3 (Homo sapiens, UniProt Q99500)", "test": "Method A: Receptor [35S] GTPγS Binding Assay, S1P3", "details": "read-out: GTPγS S1P3 EC50, EDG3-Gal5-bla HEK293T cell membranes", "experimental": "(§1) Method A: Receptor [35S] GTPγS Binding Assays\n(§2) Compounds were loaded in a 384 FALCON® v-bottom plate (0.5 μl/well in a 3-fold dilution). Membranes prepared from S1P1/CHO cells or EDG3-Gal5-bla HEK293T cells were added to the compound plate (40 μl/well, final protein 3 μg/well) with MULTIDROP®. [^35S]GTP (1250 Ci/mmol, Perkin Elmer) was diluted in assay buffer: 20 mM HEPES, pH7.5, 10 mM MgCl2, 150 mM NaCl, 1 mM EGTA, 1 mM DTT, 10 μM GDP, 0.1% fatty acid free BSA, and 10 μg/ml Saponin to 0.4 nM. 40 μl of the [^35S] GTP solution was added to the compound plate with a final concentration of 0.2 nM. The reaction was kept at room temperature for 45 min. At the end of incubation, all the mixtures in the compound plate were transferred to a 384 well FB filter plates via GPCR robot system. The filter plate was washed with water 4 times by using the modified manifold Embla plate washer and dried at 60° C. for 45 min. 30 μA of MicroScint 20 scintillation fluid was added to each well for counting at Packard TOPCOUNT®. EC50 is defined as the agonist concentration that corresponds to 50% of the Ymax (maximal response) obtained for each individual compound tested.\n(§3) Compounds of the present invention and Comparative Compound A were tested in the Receptor [^35S] GTPγS Binding Assays (Method A) and Receptor [^35S] […]"}, "S1P1 [1]": {"biological_target": "T1, S1P1 (Homo sapiens, UniProt P21453)", "test": "Method A: Receptor [35S] GTPγS Binding Assay, S1P1", "experimental": "as §1, §2, §3"}, "S1P1 [2]": {"biological_target": "T1, S1P1", "test": "S1P1 Binding Assay (33P-S1P competition, CHO membranes)", "details": "read-out: S1P1 B IC50; membranes of CHO cells expressing human S1P1, 33P-S1P ligand", "experimental": "Membranes were prepared from CHO cells expressing human S1P1. Cells were dissociated in buffer containing 20 mM HEPES, pH 7.5, 50 mM NaCl, 2 mM EDTA and Protease Inhibitor cocktail (Roche), and disrupted on ice using the Polytron homogenizer. The homogenate was centrifuged at 20,000 rpm (48,000 g) and the supernatant was discarded. The membrane pellets were resuspended in buffer containing 50 mM HEPES, pH 7.5, 100 mM NaCl, 1 mM MgCl2, 2 mM EDTA and stored in aliquots at −80° C. after protein concentration determination.\nMembranes (2 μg/well) and 0.03 nM final concentration of ^33P-S1P ligand (1 mCi/ml, American Radiolabeled Chemicals) were added to the compound plates. Binding was performed for 60 min at room temperature, terminated by collecting the membranes onto GF/B filter plates, and radioactivity was measured by TOPCOUNT®. The competition data of the test compounds over a range of concentrations was plotted as percentage inhibition of radioligand specific binding. The IC50 is defined as the concentration of competing ligand needed to reduce specific binding by 50%.\nCompounds of the present invention and Comparative Compound A were tested in the S1P1 binding assay described hereinabove and the results rounded to two digits, shown in Table A were obtained. […]"}},
  "data": [
    {"smiles": "CCOc1cccc(-n2ncc(-c3nc(-c4ccc(CN5CC(C(=O)O)C5)cc4)no3)c2C(F)(F)F)n1", "values": [
      {"measurement": "EC50", "setting": "S1P3", "value": 5900, "unit": "nM"},
      {"measurement": "GTPγS S1P3/S1P1 (Method A)", "setting": "S1P1 [1]; ratio of S1P3 EC50 to S1P1 EC50, Method A", "value": 268},
      {"measurement": "EC50", "setting": "S1P1 [1]; read-out: GTPγS S1P1 EC50, Method A, S1P1/CHO cell membranes", "value": 22, "unit": "nM"},
      {"measurement": "IC50", "setting": "S1P1 [2]", "value": 0.85, "unit": "nM"}
    ]}
  ]
}
